Amino acid sequences for entries named in this document (tags omitted).
UniProt P06493, whole entry: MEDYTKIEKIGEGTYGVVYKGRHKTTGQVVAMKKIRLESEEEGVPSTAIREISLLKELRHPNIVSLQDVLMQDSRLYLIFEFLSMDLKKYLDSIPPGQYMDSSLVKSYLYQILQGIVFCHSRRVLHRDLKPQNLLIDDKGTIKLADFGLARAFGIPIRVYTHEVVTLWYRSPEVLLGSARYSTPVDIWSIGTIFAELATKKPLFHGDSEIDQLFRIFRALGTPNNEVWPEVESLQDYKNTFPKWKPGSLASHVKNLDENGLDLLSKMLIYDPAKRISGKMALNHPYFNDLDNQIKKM
UniProt P14635, whole entry partner: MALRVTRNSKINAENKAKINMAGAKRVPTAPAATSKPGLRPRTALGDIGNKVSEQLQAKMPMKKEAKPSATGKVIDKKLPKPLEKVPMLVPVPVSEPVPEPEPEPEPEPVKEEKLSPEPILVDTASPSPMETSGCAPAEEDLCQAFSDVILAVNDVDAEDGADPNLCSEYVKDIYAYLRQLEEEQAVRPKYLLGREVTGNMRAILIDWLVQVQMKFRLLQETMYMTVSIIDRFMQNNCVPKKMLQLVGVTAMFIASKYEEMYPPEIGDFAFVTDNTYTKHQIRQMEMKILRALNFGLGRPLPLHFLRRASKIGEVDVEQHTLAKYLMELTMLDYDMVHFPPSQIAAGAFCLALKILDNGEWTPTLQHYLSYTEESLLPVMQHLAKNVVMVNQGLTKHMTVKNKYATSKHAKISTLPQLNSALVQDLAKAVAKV

In patent US7816350B2, “Substituted [1,2,3] triazolo[4,5-D]pyrimidines as cdk inhibitors” (Institute of Experimental Botany ASCR, priority 2002, dated 2010):

How the values were obtained:
p34^cdc2/cyclin B (CDC2) = p34^cdc2/cyclin B (CDC2) (Homo sapiens, UniProt P06493); assay: CDK inhibition assay, p34cdc2/cyclin B kinase, histone H1 phosphorylation; conditions: read-out: CDC2 IC50
Procedure: Cyclin-dependent kinases (p34^cdc2, p33^cdk2) and cyclins (cyclin B, E) are produced in Sf9 insect cells coinfected with appropriate baculoviral constructs. The cells are harvested 68-72 hrs post infection in lysis buffer for 30 min on ice and the soluble fraction is recovered by centrifugation at 14.000 g for 10 min. The protein extract is stored at −80° C.
Lysis buffer: 50 mM Tris pH 7.4, 150 mM NaCl, 5 mM EDTA, 20 mM NaF, 1% Tween, 1 mM DTT, 0.1 mM PMSF, leupeptine, aprotonine.
To carry out experiments on kinetics under linear conditions, the final point test system for kinase activity measurement is used. The kinase is added to reaction mixture in such a way as to obtain linear activity with respect to the concentration of enzyme and with respect to time.
The p34^cdc2 and p33^cdk2 kinase inhibition determination involves the use of 1 mg/ml histone H1 (Sigma, type III-S) in the presence of 15 μM [γ-^32P]ATP ([…]) (Amersham) in a final volume of 20 μl. Kinase activity is determined at 30° C. in the kinase buffer.
Tested compounds are usually dissolved to 100 mM solutions in DMSO, final concentration of DMSO in reaction mixture never exceeds 1%. The controls contain suitable dilutions of DMSO.
After 10 min, addition 3×SDS sample buffer stops the incubations. Phosphorylated proteins are separated electrophoretically using 12.5% SDS polyacrylamide gel. The measurement of kinase activity is done using digital image analysis.
The kinase activity is expressed as a percentage of maximum activity, the apparent inhibition constants are determined by graphic analysis (FIG. 1).
Kinase buffer: 50 mM Hepes pH 7.4, 10 mM MgCl2, 5 mM EGTA, 10 mM 2-glycerolphosphate, 1 mM NaF, 1 mM DTT

IκB-α kinase = IκB-α kinase inhibitory activity, in vitro kinase assay; assay type: biochemical; conditions: read-out: IκB-α IC50

In the case of COc1ccc(CNc2nc(NCCO)nc3c2nnn3C)c(O)c1O, the IC50 (p34^cdc2/cyclin B (CDC2)) is reported as 20 µM and the IC50 (IκB-α kinase) is reported as 90 µM.
With COc1ccc(CNc2nc(N[C@@H](CO)C(C)C)nc3c2nnn3C(C)C)c(O)c1O the IC50 (p34^cdc2/cyclin B (CDC2)) was 10 µM.
For Cn1nnc2c(NCc3ccc(Cl)c(O)c3O)nc(NCCO)nc21, the IC50 (p34^cdc2/cyclin B (CDC2)) was 18 µM and the IC50 (IκB-α kinase) was 80 µM.
For COc1cc(O)c(CNc2nc(N[C@@H](CO)C(C)C)nc3c2nnn3C(C)C)cc1O, the IC50 (p34^cdc2/cyclin B (CDC2)) was 12 µM and the IC50 (IκB-α kinase) was greater than 100 µM.
Work on CC[C@H](CO)Nc1nc(NCc2ccc(Cl)c(O)c2O)c2nnn(C(C)C)c2n1 yielded an IC50 (p34^cdc2/cyclin B (CDC2)) of 11 µM and an IC50 (IκB-α kinase) greater than 100 µM.
Compound Cn1nnc2c(NCc3cc(O)c(Cl)cc3O)nc(NCCO)nc21 has an IC50 (p34^cdc2/cyclin B (CDC2)) of 31 µM and an IC50 (IκB-α kinase) of 75 µM.
